Experimental data taken from patent US20260382623A1, “NOVEL COMPOUND FOR INHIBITING PROTEIN KINASES AND PHARMACEUTICAL COMPOSITION COMPRISING SAME” (published 2026).

Amino acid sequences for entries named in this document (tags omitted). Residues count along the entry.
UniProt P22612, whole entry: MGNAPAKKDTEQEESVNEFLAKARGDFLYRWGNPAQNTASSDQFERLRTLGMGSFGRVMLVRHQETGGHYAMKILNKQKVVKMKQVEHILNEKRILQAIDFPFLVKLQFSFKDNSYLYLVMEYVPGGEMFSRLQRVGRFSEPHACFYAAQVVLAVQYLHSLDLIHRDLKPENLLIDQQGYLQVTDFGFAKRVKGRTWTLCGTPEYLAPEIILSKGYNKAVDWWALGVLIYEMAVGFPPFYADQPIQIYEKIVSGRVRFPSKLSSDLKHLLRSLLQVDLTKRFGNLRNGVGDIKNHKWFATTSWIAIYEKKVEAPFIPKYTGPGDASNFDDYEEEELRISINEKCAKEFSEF
UniProt O60674, whole entry: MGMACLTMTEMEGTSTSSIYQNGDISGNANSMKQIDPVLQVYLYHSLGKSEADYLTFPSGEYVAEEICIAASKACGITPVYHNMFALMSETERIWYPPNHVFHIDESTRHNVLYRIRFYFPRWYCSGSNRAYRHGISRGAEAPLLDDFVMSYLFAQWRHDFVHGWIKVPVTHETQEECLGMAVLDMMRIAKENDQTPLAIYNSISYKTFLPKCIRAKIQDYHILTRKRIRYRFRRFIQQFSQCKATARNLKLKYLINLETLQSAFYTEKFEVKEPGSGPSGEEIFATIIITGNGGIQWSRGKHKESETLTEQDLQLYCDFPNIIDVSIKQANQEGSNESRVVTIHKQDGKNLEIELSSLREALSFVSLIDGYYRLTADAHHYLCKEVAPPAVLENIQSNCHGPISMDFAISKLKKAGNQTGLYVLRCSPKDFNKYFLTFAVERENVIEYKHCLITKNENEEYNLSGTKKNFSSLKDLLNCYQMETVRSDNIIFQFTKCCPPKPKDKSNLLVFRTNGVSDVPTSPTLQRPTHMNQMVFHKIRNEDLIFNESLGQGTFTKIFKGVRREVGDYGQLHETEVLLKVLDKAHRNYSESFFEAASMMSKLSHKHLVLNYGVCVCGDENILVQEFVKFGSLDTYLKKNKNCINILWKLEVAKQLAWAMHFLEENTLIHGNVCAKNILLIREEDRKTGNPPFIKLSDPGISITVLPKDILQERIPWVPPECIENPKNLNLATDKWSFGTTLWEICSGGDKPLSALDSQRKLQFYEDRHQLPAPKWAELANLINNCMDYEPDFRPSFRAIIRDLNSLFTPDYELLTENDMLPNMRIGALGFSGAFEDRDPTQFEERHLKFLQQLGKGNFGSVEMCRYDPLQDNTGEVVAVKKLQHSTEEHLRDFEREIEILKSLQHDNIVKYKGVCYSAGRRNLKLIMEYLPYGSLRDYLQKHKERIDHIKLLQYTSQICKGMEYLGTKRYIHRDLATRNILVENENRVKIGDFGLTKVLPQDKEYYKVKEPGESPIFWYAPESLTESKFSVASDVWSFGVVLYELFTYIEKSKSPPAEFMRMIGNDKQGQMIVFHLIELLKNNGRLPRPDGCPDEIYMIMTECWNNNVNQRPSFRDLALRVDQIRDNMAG
UniProt P07947, whole entry: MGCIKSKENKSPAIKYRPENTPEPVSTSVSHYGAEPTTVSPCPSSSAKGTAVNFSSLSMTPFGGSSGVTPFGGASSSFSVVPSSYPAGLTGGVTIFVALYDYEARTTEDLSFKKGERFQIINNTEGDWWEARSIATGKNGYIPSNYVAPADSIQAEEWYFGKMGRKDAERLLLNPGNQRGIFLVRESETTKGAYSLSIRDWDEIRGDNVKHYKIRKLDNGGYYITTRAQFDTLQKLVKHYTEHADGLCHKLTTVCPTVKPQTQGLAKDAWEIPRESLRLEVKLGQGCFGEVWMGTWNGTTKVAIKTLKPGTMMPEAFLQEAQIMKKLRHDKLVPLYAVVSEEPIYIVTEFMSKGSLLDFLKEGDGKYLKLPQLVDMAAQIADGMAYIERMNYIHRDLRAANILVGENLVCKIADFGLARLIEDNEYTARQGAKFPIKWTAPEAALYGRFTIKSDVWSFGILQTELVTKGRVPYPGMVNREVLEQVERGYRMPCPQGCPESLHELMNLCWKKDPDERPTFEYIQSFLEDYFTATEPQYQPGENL
UniProt P09619, 33-1106 limits assumed: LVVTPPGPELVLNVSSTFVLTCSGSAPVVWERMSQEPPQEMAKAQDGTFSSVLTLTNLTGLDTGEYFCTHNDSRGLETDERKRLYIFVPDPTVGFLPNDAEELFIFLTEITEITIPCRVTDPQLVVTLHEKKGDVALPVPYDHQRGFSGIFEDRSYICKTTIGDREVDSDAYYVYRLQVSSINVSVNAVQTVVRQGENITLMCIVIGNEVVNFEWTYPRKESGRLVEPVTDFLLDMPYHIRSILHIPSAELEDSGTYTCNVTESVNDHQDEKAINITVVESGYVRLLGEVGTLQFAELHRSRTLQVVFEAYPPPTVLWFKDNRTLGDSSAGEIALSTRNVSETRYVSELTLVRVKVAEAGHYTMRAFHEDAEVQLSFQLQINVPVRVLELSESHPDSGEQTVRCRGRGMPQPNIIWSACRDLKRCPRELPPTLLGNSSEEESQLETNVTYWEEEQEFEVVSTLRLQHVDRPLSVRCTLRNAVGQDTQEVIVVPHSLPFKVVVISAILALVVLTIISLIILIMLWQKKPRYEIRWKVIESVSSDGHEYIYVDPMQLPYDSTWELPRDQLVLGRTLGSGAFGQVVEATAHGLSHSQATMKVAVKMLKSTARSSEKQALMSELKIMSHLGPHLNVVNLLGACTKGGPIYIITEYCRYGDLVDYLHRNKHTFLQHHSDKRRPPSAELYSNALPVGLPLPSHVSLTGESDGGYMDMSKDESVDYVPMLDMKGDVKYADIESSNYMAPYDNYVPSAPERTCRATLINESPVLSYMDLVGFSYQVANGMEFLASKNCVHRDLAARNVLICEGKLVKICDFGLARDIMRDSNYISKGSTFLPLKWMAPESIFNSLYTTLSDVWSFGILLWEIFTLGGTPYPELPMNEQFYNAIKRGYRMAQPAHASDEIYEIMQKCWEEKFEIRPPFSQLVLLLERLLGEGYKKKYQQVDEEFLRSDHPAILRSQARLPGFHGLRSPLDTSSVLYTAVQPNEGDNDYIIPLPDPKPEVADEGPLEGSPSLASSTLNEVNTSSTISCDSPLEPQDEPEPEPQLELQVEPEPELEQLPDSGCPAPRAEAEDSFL
UniProt P12931, whole entry: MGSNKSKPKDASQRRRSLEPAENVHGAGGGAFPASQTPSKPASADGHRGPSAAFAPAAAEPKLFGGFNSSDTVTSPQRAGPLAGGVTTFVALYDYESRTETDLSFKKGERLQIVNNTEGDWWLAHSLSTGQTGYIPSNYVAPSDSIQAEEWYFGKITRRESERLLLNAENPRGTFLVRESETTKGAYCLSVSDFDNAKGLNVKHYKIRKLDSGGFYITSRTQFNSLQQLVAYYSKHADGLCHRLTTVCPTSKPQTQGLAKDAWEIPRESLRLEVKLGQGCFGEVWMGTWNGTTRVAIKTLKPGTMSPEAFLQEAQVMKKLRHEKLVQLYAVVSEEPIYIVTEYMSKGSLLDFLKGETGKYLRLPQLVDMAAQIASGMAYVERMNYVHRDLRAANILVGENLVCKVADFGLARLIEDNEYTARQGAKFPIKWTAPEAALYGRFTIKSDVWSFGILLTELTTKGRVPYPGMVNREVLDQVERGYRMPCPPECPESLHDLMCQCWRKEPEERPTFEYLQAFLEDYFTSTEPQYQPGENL
UniProt P29323, 19-1055 limits assumed: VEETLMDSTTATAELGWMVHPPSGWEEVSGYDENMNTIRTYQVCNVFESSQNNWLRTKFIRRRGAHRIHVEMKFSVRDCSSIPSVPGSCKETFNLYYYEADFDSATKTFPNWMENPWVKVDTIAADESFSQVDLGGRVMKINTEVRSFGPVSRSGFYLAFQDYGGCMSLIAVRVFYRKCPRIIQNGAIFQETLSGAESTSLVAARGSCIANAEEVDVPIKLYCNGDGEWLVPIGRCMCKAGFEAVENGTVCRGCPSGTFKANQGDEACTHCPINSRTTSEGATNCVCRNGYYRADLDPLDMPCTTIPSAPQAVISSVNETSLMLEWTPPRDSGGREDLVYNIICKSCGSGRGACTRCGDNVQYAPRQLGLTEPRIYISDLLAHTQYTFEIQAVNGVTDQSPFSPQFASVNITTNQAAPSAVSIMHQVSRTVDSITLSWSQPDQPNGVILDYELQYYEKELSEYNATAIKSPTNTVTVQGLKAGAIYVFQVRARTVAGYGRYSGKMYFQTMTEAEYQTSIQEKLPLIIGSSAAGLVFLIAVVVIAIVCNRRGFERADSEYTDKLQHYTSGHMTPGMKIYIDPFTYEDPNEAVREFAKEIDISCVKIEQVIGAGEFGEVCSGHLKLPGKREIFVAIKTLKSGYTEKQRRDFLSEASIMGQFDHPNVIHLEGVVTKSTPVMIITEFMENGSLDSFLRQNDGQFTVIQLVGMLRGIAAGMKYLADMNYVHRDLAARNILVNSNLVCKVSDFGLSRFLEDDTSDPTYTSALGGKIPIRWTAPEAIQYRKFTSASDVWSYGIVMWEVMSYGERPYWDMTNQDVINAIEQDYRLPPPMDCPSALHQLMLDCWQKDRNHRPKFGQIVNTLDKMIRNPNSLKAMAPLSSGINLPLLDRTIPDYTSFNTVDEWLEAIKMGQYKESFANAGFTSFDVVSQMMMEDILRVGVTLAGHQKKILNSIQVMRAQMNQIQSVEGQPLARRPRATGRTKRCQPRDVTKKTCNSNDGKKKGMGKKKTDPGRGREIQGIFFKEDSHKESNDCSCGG
UniProt Q16539, whole entry: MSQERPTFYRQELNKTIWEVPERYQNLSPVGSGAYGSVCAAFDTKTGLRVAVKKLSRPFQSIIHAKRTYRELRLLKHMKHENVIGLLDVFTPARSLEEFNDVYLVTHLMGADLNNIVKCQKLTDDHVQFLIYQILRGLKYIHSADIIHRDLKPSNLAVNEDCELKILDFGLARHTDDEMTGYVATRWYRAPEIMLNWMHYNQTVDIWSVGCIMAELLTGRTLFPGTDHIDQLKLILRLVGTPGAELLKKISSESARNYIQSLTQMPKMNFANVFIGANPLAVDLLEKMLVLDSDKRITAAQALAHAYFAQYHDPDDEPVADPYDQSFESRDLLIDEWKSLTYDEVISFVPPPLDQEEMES
UniProt Q9H0K1, whole entry: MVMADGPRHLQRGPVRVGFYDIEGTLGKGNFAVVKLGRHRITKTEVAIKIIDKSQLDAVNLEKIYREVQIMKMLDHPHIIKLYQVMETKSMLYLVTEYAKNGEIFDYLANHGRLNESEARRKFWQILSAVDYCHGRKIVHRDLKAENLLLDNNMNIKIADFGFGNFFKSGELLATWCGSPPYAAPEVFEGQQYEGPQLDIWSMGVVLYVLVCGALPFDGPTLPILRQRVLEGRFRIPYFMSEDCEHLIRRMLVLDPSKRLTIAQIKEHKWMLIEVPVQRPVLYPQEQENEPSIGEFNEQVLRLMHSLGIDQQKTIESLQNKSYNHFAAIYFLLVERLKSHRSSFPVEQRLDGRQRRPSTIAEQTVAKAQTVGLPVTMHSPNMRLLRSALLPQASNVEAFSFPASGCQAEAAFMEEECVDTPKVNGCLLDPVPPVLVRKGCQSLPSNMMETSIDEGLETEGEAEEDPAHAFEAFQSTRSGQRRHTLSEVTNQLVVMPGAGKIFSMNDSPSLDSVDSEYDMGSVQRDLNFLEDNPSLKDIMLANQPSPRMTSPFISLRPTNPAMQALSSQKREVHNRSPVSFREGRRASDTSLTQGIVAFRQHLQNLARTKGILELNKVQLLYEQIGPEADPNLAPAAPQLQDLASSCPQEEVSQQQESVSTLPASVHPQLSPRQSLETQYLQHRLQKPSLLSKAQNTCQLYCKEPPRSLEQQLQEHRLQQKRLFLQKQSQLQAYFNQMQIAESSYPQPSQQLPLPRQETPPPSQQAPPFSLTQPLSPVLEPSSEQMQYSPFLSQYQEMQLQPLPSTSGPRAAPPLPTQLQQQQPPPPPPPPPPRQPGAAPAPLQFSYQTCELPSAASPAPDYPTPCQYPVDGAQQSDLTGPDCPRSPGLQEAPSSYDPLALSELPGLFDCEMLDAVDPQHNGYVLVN
UniProt Q9Y572, whole entry: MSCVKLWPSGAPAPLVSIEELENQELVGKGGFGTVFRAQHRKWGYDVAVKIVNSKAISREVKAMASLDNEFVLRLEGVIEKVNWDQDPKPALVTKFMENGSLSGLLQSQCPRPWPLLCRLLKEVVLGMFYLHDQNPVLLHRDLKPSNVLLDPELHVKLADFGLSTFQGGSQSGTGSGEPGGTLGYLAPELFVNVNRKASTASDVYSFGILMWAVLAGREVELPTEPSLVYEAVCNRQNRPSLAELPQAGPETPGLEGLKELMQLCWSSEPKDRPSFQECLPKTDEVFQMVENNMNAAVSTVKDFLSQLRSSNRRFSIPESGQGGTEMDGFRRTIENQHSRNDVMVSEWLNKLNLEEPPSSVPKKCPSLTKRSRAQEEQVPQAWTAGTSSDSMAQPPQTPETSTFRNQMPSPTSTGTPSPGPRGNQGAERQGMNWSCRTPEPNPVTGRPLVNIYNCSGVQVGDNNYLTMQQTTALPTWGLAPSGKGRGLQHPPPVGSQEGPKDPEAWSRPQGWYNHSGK

How the values were obtained:
A549 = assay: Cell growth inhibition, A549 (CCK-8); details: read-out: Cell growth inhibition GI50, A549, 72 hours
HT-29 = assay: Cell growth inhibition, HT-29 (CCK-8); details: read-out: Cell growth inhibition GI50, HT-29, 72 hours
PKACG = PKACG (Homo sapiens, UniProt P22612); assay: Kinase panel inhibition, PKACG; details: 1 μM
PYK2 = PYK2 (Homo sapiens, UniProt Q14289); assay: Kinase panel inhibition, PYK2; details: 1 μM
RAF1 = RAF1 (Homo sapiens, UniProt P04049); assay: Kinase panel inhibition, RAF1; details: 1 μM
full kinase panel [1] = target: full kinase panel (Homo sapiens, UniProt O15146); assay: Full kinase panel inhibition by Example compounds 8 and 51 at 1 μM (Tables 11 to 14; kinase named in each table line); details: MUSK
full kinase panel [2] = target: full kinase panel (Homo sapiens, UniProt O60674); assay: as above; details: JAK2
full kinase panel [3] = target: full kinase panel (Homo sapiens, UniProt P06239); assay: as above; details: LCK
full kinase panel [4] = target: full kinase panel (Homo sapiens, UniProt P07947); assay: as above; details: YES/YES1
full kinase panel [5] = target: full kinase panel (Homo sapiens, UniProt P09619); assay: as above; details: PDGFRB
full kinase panel [6] = target: full kinase panel (Homo sapiens, UniProt P12931); assay: as above; details: C-SRC
full kinase panel [7] = target: full kinase panel (Homo sapiens, UniProt P16234); assay: as above; details: PDGFRA
full kinase panel [8] = target: full kinase panel (Homo sapiens, UniProt P21802); assay: as above; details: FGFR2
full kinase panel [9] = target: full kinase panel (Homo sapiens, UniProt P23458); assay: as above; details: JAK1
full kinase panel [10] = target: full kinase panel (Homo sapiens, UniProt P29317); assay: as above; details: EPHA2
full kinase panel [11] = target: full kinase panel (Homo sapiens, UniProt P29323); assay: as above; details: EPHB2
full kinase panel [12] = target: full kinase panel (Homo sapiens, UniProt P42685); assay: as above; details: FRK/PTK5
full kinase panel [13] = target: full kinase panel (Homo sapiens, UniProt P43405); assay: as above; details: SYK
full kinase panel [14] = target: full kinase panel (Homo sapiens, UniProt P45984); assay: as above; details: JNK2
full kinase panel [15] = target: full kinase panel (Homo sapiens, UniProt P53779); assay: as above; details: JNK3
full kinase panel [16] = target: full kinase panel (Homo sapiens, UniProt P80192); assay: as above; details: MLK1/MAP3K9
full kinase panel [17] = target: full kinase panel (Homo sapiens, UniProt Q02779); assay: as above; details: MLK2/MAP3K10
full kinase panel [18] = target: full kinase panel (Homo sapiens, UniProt Q05397); assay: as above; details: FAK/PTK2
full kinase panel [19] = target: full kinase panel (Homo sapiens, UniProt Q06418); assay: as above; details: TYRO3/SKY
full kinase panel [20] = target: full kinase panel (Homo sapiens, UniProt Q08345); assay: as above; details: DDR1
full kinase panel [21] = target: full kinase panel (Homo sapiens, UniProt Q16539); assay: as above; details: P38A/MAPK14
full kinase panel [22] = target: full kinase panel (Homo sapiens, UniProt Q16620); assay: as above; details: TRKB
full kinase panel [23] = target: full kinase panel (Homo sapiens, UniProt Q5S007); assay: as above; details: LRRK2
full kinase panel [24] = target: full kinase panel (Homo sapiens, UniProt Q8NE63); assay: as above; details: HIPK4
full kinase panel [25] = target: full kinase panel (Homo sapiens, UniProt Q9H0K1); assay: as above; details: SIK2
full kinase panel [26] = target: full kinase panel (Homo sapiens, UniProt Q9H3Y6); assay: as above; details: SRMS
full kinase panel [27] = target: full kinase panel (Homo sapiens, UniProt Q9UKE5); assay: as above; details: TNIK
full kinase panel [28] = target: full kinase panel (Homo sapiens, UniProt Q9Y572); assay: as above; details: RIPK3

Cc1ccc(Nc2ncc3c(n2)C2(CC2)C(=O)N(c2cc(NC(=O)c4cccc(C(F)(F)F)c4)ccc2C)C3)cn1
GI50 (A549): < 5 µM
GI50 (HT-29): < 5 µM
kinase inhibition (residual enzyme activity) (PKACG): ◯ (residual enzyme activity values were 40% or less, i.e., inhibited by 60% or more)
kinase inhibition (residual enzyme activity) (PYK2): ◯ (residual enzyme activity values were 40% or less, i.e., inhibited by 60% or more)
kinase inhibition (residual enzyme activity) (RAF1): ◯ (residual enzyme activity values were 40% or less, i.e., inhibited by 60% or more)
kinase inhibition (residual enzyme activity) (full kinase panel [1]): ◯ (residual enzyme activity values were 40% or less, i.e., inhibited by 60% or more)
kinase inhibition (residual enzyme activity) (full kinase panel [2]): ◯ (residual enzyme activity values were 40% or less, i.e., inhibited by 60% or more)
kinase inhibition (residual enzyme activity) (full kinase panel [3]): ◯ (residual enzyme activity values were 40% or less, i.e., inhibited by 60% or more)
kinase inhibition (residual enzyme activity) (full kinase panel [4]): ◯ (residual enzyme activity values were 40% or less, i.e., inhibited by 60% or more)
kinase inhibition (residual enzyme activity) (full kinase panel [5]): ◯ (residual enzyme activity values were 40% or less, i.e., inhibited by 60% or more)
kinase inhibition (residual enzyme activity) (full kinase panel [6]): ◯ (residual enzyme activity values were 40% or less, i.e., inhibited by 60% or more)
kinase inhibition (residual enzyme activity) (full kinase panel [7]): ◯ (residual enzyme activity values were 40% or less, i.e., inhibited by 60% or more)
kinase inhibition (residual enzyme activity) (full kinase panel [8]): ◯ (residual enzyme activity values were 40% or less, i.e., inhibited by 60% or more)
kinase inhibition (residual enzyme activity) (full kinase panel [9]): ◯ (residual enzyme activity values were 40% or less, i.e., inhibited by 60% or more)
kinase inhibition (residual enzyme activity) (full kinase panel [10]): ◯ (residual enzyme activity values were 40% or less, i.e., inhibited by 60% or more)
kinase inhibition (residual enzyme activity) (full kinase panel [11]): ◯ (residual enzyme activity values were 40% or less, i.e., inhibited by 60% or more)
kinase inhibition (residual enzyme activity) (full kinase panel [12]): ◯ (residual enzyme activity values were 40% or less, i.e., inhibited by 60% or more)
kinase inhibition (residual enzyme activity) (full kinase panel [13]): ◯ (residual enzyme activity values were 40% or less, i.e., inhibited by 60% or more)
kinase inhibition (residual enzyme activity) (full kinase panel [14]): ◯ (residual enzyme activity values were 40% or less, i.e., inhibited by 60% or more)
kinase inhibition (residual enzyme activity) (full kinase panel [15]): ◯ (residual enzyme activity values were 40% or less, i.e., inhibited by 60% or more)
kinase inhibition (residual enzyme activity) (full kinase panel [16]): ◯ (residual enzyme activity values were 40% or less, i.e., inhibited by 60% or more)
kinase inhibition (residual enzyme activity) (full kinase panel [17]): ◯ (residual enzyme activity values were 40% or less, i.e., inhibited by 60% or more)
kinase inhibition (residual enzyme activity) (full kinase panel [18]): ◯ (residual enzyme activity values were 40% or less, i.e., inhibited by 60% or more)
kinase inhibition (residual enzyme activity) (full kinase panel [19]): ◯ (residual enzyme activity values were 40% or less, i.e., inhibited by 60% or more)
kinase inhibition (residual enzyme activity) (full kinase panel [20]): ◯ (residual enzyme activity values were 40% or less, i.e., inhibited by 60% or more)
kinase inhibition (residual enzyme activity) (full kinase panel [21]): ◯ (residual enzyme activity values were 40% or less, i.e., inhibited by 60% or more)
kinase inhibition (residual enzyme activity) (full kinase panel [22]): ◯ (residual enzyme activity values were 40% or less, i.e., inhibited by 60% or more)
kinase inhibition (residual enzyme activity) (full kinase panel [23]): ◯ (residual enzyme activity values were 40% or less, i.e., inhibited by 60% or more)
kinase inhibition (residual enzyme activity) (full kinase panel [24]): ◯ (residual enzyme activity values were 40% or less, i.e., inhibited by 60% or more)
kinase inhibition (residual enzyme activity) (full kinase panel [25]): ◯ (residual enzyme activity values were 40% or less, i.e., inhibited by 60% or more)
kinase inhibition (residual enzyme activity) (full kinase panel [26]): ◯ (residual enzyme activity values were 40% or less, i.e., inhibited by 60% or more)
kinase inhibition (residual enzyme activity) (full kinase panel [27]): ◯ (residual enzyme activity values were 40% or less, i.e., inhibited by 60% or more)
kinase inhibition (residual enzyme activity) (full kinase panel [28]): ◯ (residual enzyme activity values were 40% or less, i.e., inhibited by 60% or more)
